{"source": "patent US10357533B2", "about": "“Drug for the effective control of acute and or chronic pain and a method for its administration” (PVP LABS PTE. LTD., priority 2016, dated 2019)", "origin": "cited, not measured here", "test_system": "mice", "conditions": "dosage 10 mg/kg, published data; cited from earlier work", "data": [{"smiles": "CN1CC[C@]23c4c5ccc(O)c4O[C@H]2[C@@H](O)C=C[C@H]3[C@H]1C5", "note": "[Morphine, reference compound]", "values": [{"measurement": "duration of the analgesic effect", "result": "2 to 3", "unit": "h"}]}]}
